The values below are quoted from earlier work in patent US9700872B1, “Superpolar chromatographic stationary phases and extraction sorbents and their methods of synthesis” (THE FLORIDA INTERNATIONAL UNIVERSITY BOARD OF TRUSTEES, priority 2016, dated 2017).

Like-named read-outs stand apart in the source and are kept apart here.

For the data set the following is noted: octanol/water.
The mark [1] stands for this setting: Top 100 EPA Priority Pollutants (Table 2).

On to `Cc1cc([N+](=O)[O-])cc([N+](=O)[O-])c1O`, for which the “Log Kow” value under setting [1] is reported as 2.1.
For the compound 1-Ketose, the “Log Kow” value (exemplary polyhydroxy molecules (Table 1)) is reported as −5.5.
For 2-Chroethyl vinyl ether, the “Log Kow” value under setting [1] is 1.4.
As for 4,4-DDD, the “Log Kow” value under setting [1] is 6.2.
In the case of 4,4-DDE, the “Log Kow” value under setting [1] is 7.
In the case of 4,4-DDT, the “Log Kow” value under setting [1] is 6.9.
Turning to Aldrine, the “Log Kow” value under setting [1] was 4.5.
For Alpha-BHC, the “Log Kow” value under setting [1] is reported as 3.8.
Dibenzo(h)anthracene: the “Log Kow” value under setting [1] was 6.5.
